Publication PMC5374532, “Rational mutagenesis by engineering disulphide bonds improves Kluyveromyces lactis beta-galactosidase for high-temperature industrial applications” (Scientific Reports, 2017)

Test system: O=[N+]([O-])c1ccc(O[C@@H]2O[C@H](CO)[C@H](O)[C@H](O)[C@H]2O)cc1
Test: purified protein
Details: Z buffer (100 mM Na2HPO4, 40 mM NaH2PO4, 10 mM KCl, 1.6 mM MgSO4), 30 °C, 0.3 μg/mL enzyme, substrate 0-20 mM, residue 116 also printed as Asp116

Kl-β-Gal (Kluyveromyces lactis β-galactosidase) (Kluyveromyces lactis NRRL Y-1140; D116C/G818C/T270C)
Km: 2470 ± 360 µM
Vmax: 146 µmol/min/mg

Kl-β-Gal (Kluyveromyces lactis β-galactosidase) (Kluyveromyces lactis NRRL Y-1140; D116C/T270C)
Km: 2220 ± 250 µM
Vmax: 99.4 µmol/min/mg
